One experiment concerns the target D(2) dopamine receptor (Homo sapiens, UniProt P14416).
The target of the next experiment is D(4) dopamine receptor (Homo sapiens, UniProt P21917). Nature of the experiment: Displacement of [3H]spiperone from human Dopamine receptor D4.
A further experiment addresses D(3) dopamine receptor (Homo sapiens, UniProt P35462). Nature of the experiment: Displacement of [3H]7-OH-DPAT from human Dopamine receptor D3.

Protein sequences, listed by entry. Tags and fused reporters are not part of them. Chains listed by the source or under a name are the forms on record and can include a tag or linker.
UniProt P14416, whole entry: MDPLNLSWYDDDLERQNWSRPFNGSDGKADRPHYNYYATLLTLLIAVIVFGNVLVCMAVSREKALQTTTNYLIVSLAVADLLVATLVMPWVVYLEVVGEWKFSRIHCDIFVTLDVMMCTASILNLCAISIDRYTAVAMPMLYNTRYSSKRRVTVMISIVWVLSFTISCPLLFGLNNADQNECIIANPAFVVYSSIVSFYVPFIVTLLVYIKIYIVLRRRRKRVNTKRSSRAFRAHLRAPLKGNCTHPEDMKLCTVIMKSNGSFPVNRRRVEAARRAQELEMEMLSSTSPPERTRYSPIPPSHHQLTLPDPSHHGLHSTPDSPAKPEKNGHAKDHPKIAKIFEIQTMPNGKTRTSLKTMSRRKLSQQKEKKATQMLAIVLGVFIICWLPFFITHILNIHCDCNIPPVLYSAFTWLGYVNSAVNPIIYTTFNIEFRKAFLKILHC
UniProt P21917, whole entry: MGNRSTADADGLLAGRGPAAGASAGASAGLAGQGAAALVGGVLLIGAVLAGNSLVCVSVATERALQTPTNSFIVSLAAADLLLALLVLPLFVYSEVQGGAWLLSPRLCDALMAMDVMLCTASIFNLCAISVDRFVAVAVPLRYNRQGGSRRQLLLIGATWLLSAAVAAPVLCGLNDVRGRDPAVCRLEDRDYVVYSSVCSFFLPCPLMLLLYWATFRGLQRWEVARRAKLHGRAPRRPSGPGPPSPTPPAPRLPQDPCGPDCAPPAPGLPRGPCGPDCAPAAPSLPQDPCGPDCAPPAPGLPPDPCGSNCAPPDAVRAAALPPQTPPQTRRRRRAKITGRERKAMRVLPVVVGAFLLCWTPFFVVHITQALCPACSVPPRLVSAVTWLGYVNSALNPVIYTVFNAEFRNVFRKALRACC
UniProt P35462, as listed by the source: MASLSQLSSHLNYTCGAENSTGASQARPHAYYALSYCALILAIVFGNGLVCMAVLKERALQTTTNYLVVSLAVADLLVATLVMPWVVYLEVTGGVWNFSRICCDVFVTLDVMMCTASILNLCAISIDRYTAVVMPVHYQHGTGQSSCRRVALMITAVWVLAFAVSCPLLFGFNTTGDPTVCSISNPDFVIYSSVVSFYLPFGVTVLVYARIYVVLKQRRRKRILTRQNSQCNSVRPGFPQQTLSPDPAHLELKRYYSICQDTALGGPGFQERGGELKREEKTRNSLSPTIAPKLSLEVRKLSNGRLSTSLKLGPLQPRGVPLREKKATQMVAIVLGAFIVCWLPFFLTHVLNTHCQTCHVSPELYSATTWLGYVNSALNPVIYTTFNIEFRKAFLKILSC

`CN(CCCC(=O)c1ccc(F)cc1)CCCC(O)c1ccc(Cl)cc1` (stereo not drawn) displayed a pKi on D(2) dopamine receptor of 7.58. `O=C(CCCN1CCC(O)(c2ccc(Cl)cc2)C1)c1ccc(F)cc1` (stereo not drawn) [(+)-4-{3-(4-chlorophenyl)-3-hydroxypyrrolidin-1-yl}-1-(4-fluorophenyl)butan-1-one]: the negative logarithm of the Ki (pKi) came to 7.98 on D(4) dopamine receptor and 6.7 on D(3) dopamine receptor.
